Assay results: patent EP2934149B1, “C6-AZASPIRO IMINOTHIADIAZINE DIOXIDES AS BACE INHIBITORS” (Merck Sharp & Dohme Corp., priority 2012, dated 2014)
pKi: −log10 of the molar value.

By UniProt entry, the sequences of proteins in these tests, tags left out. Residues count along the entry.
UniProt P56817, 75-416 limits assumed: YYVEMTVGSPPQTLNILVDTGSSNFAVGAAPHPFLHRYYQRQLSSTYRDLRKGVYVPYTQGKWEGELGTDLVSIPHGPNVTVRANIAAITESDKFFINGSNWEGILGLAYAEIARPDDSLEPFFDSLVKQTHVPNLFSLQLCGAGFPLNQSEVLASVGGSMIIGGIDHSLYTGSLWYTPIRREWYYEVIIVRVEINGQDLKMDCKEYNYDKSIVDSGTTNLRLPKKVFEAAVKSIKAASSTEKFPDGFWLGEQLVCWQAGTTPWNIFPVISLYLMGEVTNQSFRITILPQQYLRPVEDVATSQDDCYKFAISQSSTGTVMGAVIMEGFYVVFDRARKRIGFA

Assays:
[1] = target: soluble human BACE1 catalytic domain (Homo sapiens, UniProt P56817); test: BACE1 HTRF FRET Assay; assay type: biochemical; conditions: Ki calculated from IC50 using the Cheng-Prusoff equation; QSY7-APPswe-Eu substrate 200 nM final, pH 5.0, 30° C
Description: A homogeneous time-resolved FRET assay can be used to determine IC50 values for inhibitors of the soluble human BACE1 catalytic domain. […] This substrate contains an N-terminal QSY7 moiety that serves as a quencher of the C-terminal Europium fluorophore (620nm Em). […] Inhibition of BACE1 cleavage of the QSY7-APP^swe-Eu substrate by inhibitors is manifested as a suppression of 620 nm fluorescence. […] The reactions are incubated at 30° C for 1.5 hours. The 620nm fluorescence is then read on a Rubystar HTRF plate reader (BMG Labtechnologies) using a 50 millisecond delay followed by a 400 millisecond acquisition time window. Inhibitor IC50 values are derived from non-linear regression analysis of concentration response curves.

[2] = target: T1, purified human autoBACE-2 (Homo sapiens, UniProt Q9Y5Z0); test: BACE-2 Assay (BACE-HTRF assay); assay type: biochemical; conditions: Ki calculated from IC50 using the Cheng-Prusoff equation; QSY7-EISEVNLDAEFC-Eu-amide substrate 200 nM final, pH 5.0, 30°C; read-out: BACE2 Ki
T1 sequence (Q9Y5Z0 63-473 limits assumed): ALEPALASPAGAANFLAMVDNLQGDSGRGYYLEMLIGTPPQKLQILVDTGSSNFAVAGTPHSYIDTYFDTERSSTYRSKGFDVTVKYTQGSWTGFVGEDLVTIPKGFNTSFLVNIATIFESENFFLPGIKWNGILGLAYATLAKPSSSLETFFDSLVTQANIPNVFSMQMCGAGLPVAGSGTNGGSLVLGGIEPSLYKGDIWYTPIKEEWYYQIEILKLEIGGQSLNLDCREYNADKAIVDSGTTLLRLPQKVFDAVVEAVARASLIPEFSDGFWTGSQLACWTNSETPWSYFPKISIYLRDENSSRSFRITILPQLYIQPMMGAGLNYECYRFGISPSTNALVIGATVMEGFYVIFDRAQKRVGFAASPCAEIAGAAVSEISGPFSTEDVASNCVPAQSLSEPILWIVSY
Description: Inhibitor IC50's at purified human autoBACE-2 are determined in a time-resolved endpoint proteolysis assay that measures hydrolysis of the QSY7-[…]-Eu-amide FRET peptide substrate (BACE-HTRF assay). […] Inhibitor compounds, prepared at 3x the desired final concentration in 1x BACE assay buffer (20 mM sodium acetate pH 5.0,10% glycerol, 0.1% Brij-35) supplemented with 7.5% DMSO are pre-incubated with an equal volume of autoBACE-2 enzyme diluted in 1x BACE assay buffer (final enzyme concentration 1 nM) in black 384-well NUNC plates for 30 minutes at 30°C. […] DMSO is present at 5% final concentration in the assay. Following laser excitation of sample wells at 320 nm, the fluorescence signal at 620 nm is collected for 400 ms following a 50 µs delay on a RUBYstar HTRF plate reader (BMG Labtechnologies). Raw RFU data is normalized to maximum (1.0 nM BACE/DMSO) and minimum (no enzyme/DMSO) RFU values. […] The Ki values are calculated from the IC50 using the Cheng-Prusoff equation.

pKi [1]: 6.92
pKi [2]: 7.14
SMILES: CN1C(=N)N[C@](C)(c2cc(NC(=O)c3ccc(F)cn3)ccc2F)[C@@]2(CCN(CC3CCOC3)C2)S1(=O)=O (some centres unmarked) [Example 43]
